This passage reports IC50 results from ChEMBL document CHEMBL1641457, “The synthesis and biological evaluation of 1-C-alkyl-L-arabinoiminofuranoses, a novel class of α-glucosidase inhibitors” (Bioorg Med Chem Lett, 2011).

Sequences of proteins named here, by UniProt entry; tags and fusion partners are left off. Residues count along the entry.
UniProt P23739, 1014-1841 limits assumed: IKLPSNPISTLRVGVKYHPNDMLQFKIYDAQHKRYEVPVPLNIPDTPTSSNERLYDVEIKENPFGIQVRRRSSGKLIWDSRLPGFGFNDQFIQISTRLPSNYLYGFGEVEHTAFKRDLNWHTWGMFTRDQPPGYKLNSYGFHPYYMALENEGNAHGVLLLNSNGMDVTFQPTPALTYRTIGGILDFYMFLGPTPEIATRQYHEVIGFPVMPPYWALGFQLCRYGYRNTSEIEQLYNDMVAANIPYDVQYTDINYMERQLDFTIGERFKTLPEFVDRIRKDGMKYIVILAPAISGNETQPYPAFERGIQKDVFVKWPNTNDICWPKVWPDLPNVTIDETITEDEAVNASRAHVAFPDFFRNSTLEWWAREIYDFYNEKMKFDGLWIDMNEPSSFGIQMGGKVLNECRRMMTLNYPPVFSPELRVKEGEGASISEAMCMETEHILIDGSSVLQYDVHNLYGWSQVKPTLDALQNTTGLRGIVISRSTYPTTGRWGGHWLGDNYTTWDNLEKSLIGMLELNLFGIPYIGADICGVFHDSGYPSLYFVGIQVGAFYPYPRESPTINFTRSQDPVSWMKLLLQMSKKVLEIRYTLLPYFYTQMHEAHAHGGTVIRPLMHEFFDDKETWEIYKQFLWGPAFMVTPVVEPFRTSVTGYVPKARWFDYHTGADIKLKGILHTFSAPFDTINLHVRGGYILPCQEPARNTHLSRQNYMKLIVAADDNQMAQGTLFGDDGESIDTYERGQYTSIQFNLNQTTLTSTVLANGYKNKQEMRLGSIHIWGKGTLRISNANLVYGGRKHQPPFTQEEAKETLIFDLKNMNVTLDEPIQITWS
UniProt P23739, 1-1013 limits assumed: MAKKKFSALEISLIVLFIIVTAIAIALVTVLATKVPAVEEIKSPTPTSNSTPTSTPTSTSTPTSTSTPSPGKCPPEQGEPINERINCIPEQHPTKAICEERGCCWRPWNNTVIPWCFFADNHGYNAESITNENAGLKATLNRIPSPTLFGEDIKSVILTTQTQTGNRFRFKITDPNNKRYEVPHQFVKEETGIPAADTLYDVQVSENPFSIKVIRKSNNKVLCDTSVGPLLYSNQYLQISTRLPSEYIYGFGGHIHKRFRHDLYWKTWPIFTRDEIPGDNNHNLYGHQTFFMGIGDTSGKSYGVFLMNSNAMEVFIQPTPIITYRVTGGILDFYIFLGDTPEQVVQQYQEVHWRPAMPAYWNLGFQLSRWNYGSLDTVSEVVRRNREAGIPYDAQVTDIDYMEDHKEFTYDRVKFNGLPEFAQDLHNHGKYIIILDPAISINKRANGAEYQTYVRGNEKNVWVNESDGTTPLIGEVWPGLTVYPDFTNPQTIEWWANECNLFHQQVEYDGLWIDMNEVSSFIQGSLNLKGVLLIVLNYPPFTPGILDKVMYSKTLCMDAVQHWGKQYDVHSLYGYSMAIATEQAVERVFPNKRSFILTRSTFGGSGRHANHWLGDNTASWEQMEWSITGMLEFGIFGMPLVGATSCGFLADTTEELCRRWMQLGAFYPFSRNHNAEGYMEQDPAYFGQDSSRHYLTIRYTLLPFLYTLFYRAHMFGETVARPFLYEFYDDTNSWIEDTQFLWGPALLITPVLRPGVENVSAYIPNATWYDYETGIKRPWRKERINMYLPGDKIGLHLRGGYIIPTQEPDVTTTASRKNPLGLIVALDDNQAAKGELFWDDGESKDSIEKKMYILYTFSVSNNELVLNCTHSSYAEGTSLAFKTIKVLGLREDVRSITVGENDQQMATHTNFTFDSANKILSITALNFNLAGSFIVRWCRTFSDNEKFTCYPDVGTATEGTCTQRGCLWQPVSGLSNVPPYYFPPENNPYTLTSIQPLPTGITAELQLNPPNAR

The structures appear in SMILES notation.

This experiment has as its target Sucrase-isomaltase, intestinal (Rattus norvegicus, UniProt P23739). The experiment is described as follows: Inhibition of Wistar rat small intestine sucrase after 30 mins.

As a reminder, the IC50 is the concentration that inhibits the measured activity by half. A high value points to weaker potency in that assay. For the molecule `C[C@H]1O[C@H](O[C@H]2[C@H](O)[C@@H](O)[C@@H](O[C@H]3[C@H](O)[C@@H](O)C(O)O[C@@H]3CO)O[C@@H]2CO)[C@H](O)[C@@H](O)[C@@H]1N[C@H]1C=C(CO)[C@@H](O)[C@H](O)[C@H]1O` (stereo partly specified) [ACARBOSE], the IC50 turned out to be 2900 nM.
